Assay results taken from publication PMC5863483, “Low HLA binding of diabetes-associated CD8+ T-cell epitopes is increased by post translational modifications” (BMC Immunology, 2018).

target: HLA-A*02:01 (Homo sapiens, UniProt P04439, D140Y/D185E/D98H/E176V/E277Q/G131W/G231S/I119V/I121R/I166T/I218V/L300P/L318F/N151K/N90K/P208A/P217A/Q86G/Q94H/R138H/R169H/T345S); assay: HLA-peptide competition binding assay, A*02:01; conditions: not given

SMILES	IC50 [nM]
CC(C)C[C@H](NC(=O)[C@H](C)N)C(=O)N[C@@H](Cc1ccc(O)cc1)C(=O)N[C@@H](CC(C)C)C(=O)N[C@H](C(=O)N[C@@H](CS)C(=O)NCC(=O)N[C@@H](CCC(=O)O)C(=O)N[C@@H](CCCNC(N)=O)C(=O)NCC(=O)O)C(C)C	9080
C[C@@H](O)[C@H](NC(=O)[C@H](CCCCN)NC(=O)[C@@H]1CCCN1C(=O)[C@@H](NC(=O)[C@H](Cc1ccc(O)cc1)NC(=O)[C@H](Cc1ccccc1)NC(=O)[C@H](Cc1ccccc1)NC(=O)CNC(=O)[C@H](CCCNC(N)=O)NC(=O)[C@@H](N)CCC(=O)O)[C@@H](C)O)C(=O)O	36300
CC(C)C[C@H](NC(=O)[C@H](Cc1ccc(O)cc1)NC(=O)[C@@H](N)CC(C)C)C(=O)N[C@H](C(=O)N[C@@H](CS)C(=O)NCC(=O)N[C@@H](CCC(=O)O)C(=O)N[C@@H](CCCNC(N)=O)C(=O)NCC(=O)N[C@@H](Cc1ccccc1)C(=O)O)C(C)C	18800

same assay, conditions: read-out: A*02:01 binding (IC50 nM) Modified; post-translationally modified insulin peptide; competition binding assay; a dash indicates IC50 >40,000 nM

SMILES	IC50 [nM]
C[C@@H](O)[C@H](NC(=O)[C@H](Cc1ccc(O)cc1)NC(=O)[C@H](Cc1ccccc1)NC(=O)[C@H](Cc1ccccc1)NC(=O)CNC(=O)[C@H](CCCNC(N)=O)NC(=O)[C@H](CCC(=O)O)NC(=O)CN)C(=O)N1CCC[C@H]1C(=O)N[C@@H](CCCCN)C(=O)O	> 40000
C[C@@H](O)[C@H](NC(=O)[C@H](CCCCN)NC(=O)[C@@H]1CCCN1C(=O)[C@@H](NC(=O)[C@H](Cc1ccc(O)cc1)NC(=O)[C@H](Cc1ccccc1)NC(=O)[C@H](Cc1ccccc1)NC(=O)CN)[C@@H](C)O)C(=O)N[C@@H](CCCNC(N)=O)C(=O)N[C@@H](CCCNC(N)=O)C(=O)O	> 40000
C[C@@H](O)[C@H](NC(=O)[C@H](CCCCN)NC(=O)[C@@H]1CCCN1C(=O)[C@@H](NC(=O)[C@H](Cc1ccc(O)cc1)NC(=O)[C@H](Cc1ccccc1)NC(=O)[C@H](Cc1ccccc1)NC(=O)CNC(=O)[C@@H](N)CCCNC(N)=O)[C@@H](C)O)C(=O)N[C@@H](CCCNC(N)=O)C(=O)O	> 40000
